Results taken from ChEMBL document CHEMBL4311946, “Mechanistic Insight on the Mode of Action of Colletoic Acid” (J Med Chem, 2019).

By UniProt entry, the sequences of proteins in these tests, tags left out.
UniProt P28845, whole entry C272S: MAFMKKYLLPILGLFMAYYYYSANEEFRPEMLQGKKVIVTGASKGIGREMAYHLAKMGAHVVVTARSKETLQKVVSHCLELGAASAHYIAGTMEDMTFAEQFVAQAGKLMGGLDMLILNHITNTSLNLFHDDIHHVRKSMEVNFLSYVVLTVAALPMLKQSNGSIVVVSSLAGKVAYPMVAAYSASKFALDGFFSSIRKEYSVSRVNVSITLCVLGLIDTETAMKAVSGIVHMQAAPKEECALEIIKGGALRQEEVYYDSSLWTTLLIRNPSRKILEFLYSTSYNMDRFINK

Biological target: 11-beta-hydroxysteroid dehydrogenase 1 (Homo sapiens, UniProt P28845, C272S)
Assay: Inhibition of N-terminal MKHQHQHQHQHQHQQPL-tagged 11beta-HSD1 C272S mutant (unknown origin) expressed in Escherichia coli BL21 (DE3) using cortisol as substrate measured for 1 hr in presence of NADPH by fluorescence assay

In the case of `CC1(C)[C@@H](OC(=O)CCC(=O)O)CC[C@]2(C)[C@H]3C(=O)C=C4[C@@H]5C[C@@](C)(C(=O)O)CC[C@]5(C)CC[C@@]4(C)[C@]3(C)CC[C@@H]12` [CARBENOXOLONE], the IC50 is reported as 410 nM and the Ki is reported as 62 nM.
